Earlier results, collected in patent publication US20250312300A1, “BRIDGED BICYCLIC CARBOXYLIC ACIDS FOR TREATING OSTEOSARCOMA AND EWING SARCOMA” (UEA ENTERPRISES LIMITED, priority 2022, published 2025).

Tested on: osteosarcoma
Details: HER2-positive vs HER2-negative groups, PMID: 22665540; cited from earlier work

Substance: trastuzumab
- patient outcome / therapeutic benefit: therapeutic benefit remains uncertain
